Measured values from US9176117B2, “Macrophage hazardous material detection” (dated 2015).

System: Sentinel Cells (SC), stationary macrophages
Experiment: Sentinel Cell responses to energetic materials by real-time multi-label light microscopy (DIC, H33342 DNA, MitoTracker, ER-Tracker)
Conditions: for Sentinel Cell responses to control agents: SC independently exposed to each control agent

Row | SMILES | primary Sentinel Cell responses observed (DMDNB at 5 nm in solution (88 ppt), FIGS. 9A-C) | Sentinel Cell responses to control agents
1 | CC(C)([N+](=O)[O-])C(C)(C)[N+](=O)[O-] | pronounced lobed nucleus and nucleus with tines, arborized nucleus, highly condensed chromosomes, and significantly increased nuclear envelope breakdown, mitosis, and emerge from tissue | –
2 | C[S+](C)[O-] | – | No responses are observed
3 | OCC(CO)(CO)CO | – | No responses are observed
